Here are results for 33 compounds from ChEMBL document CHEMBL4024757, “Application of the Ugi Multicomponent Reaction in the Synthesis of Reactivators of Nerve Agent Inhibited Acetylcholinesterase” (2017).

The chains behind the UniProt entries cited, without tags or fusion partners. Where a name states a change or a piece, a line headed by the entry shows the natural chain unless it says otherwise.
UniProt P22303: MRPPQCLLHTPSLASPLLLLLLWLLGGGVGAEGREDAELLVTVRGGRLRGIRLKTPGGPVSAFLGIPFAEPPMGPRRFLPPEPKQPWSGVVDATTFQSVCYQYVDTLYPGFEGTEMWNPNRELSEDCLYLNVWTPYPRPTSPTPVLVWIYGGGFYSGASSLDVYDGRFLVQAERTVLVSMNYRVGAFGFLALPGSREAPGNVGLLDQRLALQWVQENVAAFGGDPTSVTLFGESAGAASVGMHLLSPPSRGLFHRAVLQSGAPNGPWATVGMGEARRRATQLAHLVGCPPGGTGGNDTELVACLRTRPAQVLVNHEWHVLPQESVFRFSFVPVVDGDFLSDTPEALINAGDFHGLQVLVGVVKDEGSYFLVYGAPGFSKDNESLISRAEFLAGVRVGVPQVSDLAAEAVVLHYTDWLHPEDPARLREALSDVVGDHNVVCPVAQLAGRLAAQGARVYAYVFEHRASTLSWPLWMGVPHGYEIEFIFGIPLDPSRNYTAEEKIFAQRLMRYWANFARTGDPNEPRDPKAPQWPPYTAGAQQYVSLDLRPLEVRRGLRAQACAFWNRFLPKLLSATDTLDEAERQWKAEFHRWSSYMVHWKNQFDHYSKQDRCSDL

Structures are written as SMILES. Active and inactive are the calls of the source. No cut-off for these calls is given here.

The first assay addresses Acetylcholinesterase (Homo sapiens) (UniProt P22303). The experiment in a line: Reactivation of cyclosarin inhibited human erythrocyte AChE assessed as residual activity up to 0.25 mM using acetylthiocholine iodide as substrate preincubated for 2 to 120 mins followed by substrate addition measured for 3 mins by Ellman's method. Background: Ellman's reagent forms a yellow product with free thiols.
For `COc1ccc(CN(CC(=O)NCc2ccccc2)C(=O)Cn2ccnc2/C=N/O)cc1`, the result was inactive.

`CCCCN(CC(=O)NC(C)C)C(=O)Cn1ccnc1/C=N/O`: the result was inactive.

`COc1ccc(CN(CC(=O)NC(C)C)C(=O)Cn2ccnc2/C=N/O)cc1`: the result was inactive.

Regarding `CCCCN(CC(=O)NCc1ccccc1)C(=O)Cn1ccnc1/C=N/O`, the result was inactive.

The next assay shares this target. Briefly: Reactivation of sarin inhibited human erythrocyte AChE assessed as residual activity at 10 to 1000 uM using acetylthiocholine iodide as substrate preincubated for 2 to 120 mins followed by substrate addition measured for 3 mins by Ellman's method.
Regarding `COc1ccc(CN(CC(=O)NC(C)C)C(=O)/C(C)=N/O)cc1`, the outcome was Active.

Regarding `COc1ccc(CN(CC(=O)NC(C)C)C(=O)CCCCC[n+]2ccc(/C=N/O)cc2)cc1`, the result was Active.

Consider `O=C(O)CCCCCn1ccnc1/C=N/O`, for which the outcome was inactive.

As for `COc1ccc(CN(CC(=O)NC(C)C)C(=O)CCCNC(=O)/C=N/O)cc1`, the outcome was Active.

With `O=C(O)Cn1ccnc1/C=N/O`, the outcome was inactive.

For the compound `COc1ccc(CN(CC(=O)NC(C)C)C(=O)CCCCCNC(=O)/C=N/O)cc1`, the outcome was Active.

As for `O=C(O)CCCCC[n+]1ccc(/C=N/O)cc1`, the outcome was Active.

As for `COc1ccc(CN(CC(=O)NC(C)C)C(=O)/C=N/O)cc1`, the outcome was Active.

With `COc1ccc(CN(CC(=O)NC(C)C)C(=O)C[n+]2ccc(/C=N\O)cc2)cc1`, the result was Active.

On to `O=C(O)CCCn1ccnc1/C=N/O`, for which the outcome was inactive.

With `O=C(O)C[n+]1ccc(/C=N/O)cc1`, the outcome was Active.

The next assay has the same target. Briefly: Reactivation of sarin inhibited human erythrocyte AChE assessed as residual activity up to 0.25 mM using acetylthiocholine iodide as substrate preincubated for 2 to 120 mins followed by substrate addition measured for 3 mins by Ellman's method.
Consider `COc1ccc(CN(CC(=O)NCc2ccccc2)C(=O)Cn2ccnc2/C=N/O)cc1`, for which the result was inactive.

With `CCCCN(CC(=O)NC(C)C)C(=O)Cn1ccnc1/C=N/O`, the result was inactive.

For `COc1ccc(CN(CC(=O)NC(C)C)C(=O)Cn2ccnc2/C=N/O)cc1`, the result was inactive.

As for `CCCCN(CC(=O)NCc1ccccc1)C(=O)Cn1ccnc1/C=N/O`, the result was inactive.

For another assay the target is unchanged. Briefly: Reactivation of tabun inhibited human erythrocyte AChE assessed as residual activity at 10 to 1000 uM using acetylthiocholine iodide as substrate preincubated for 2 to 120 mins followed by substrate addition measured for 3 mins by Ellman's method.
With `COc1ccc(CN)cc1`, the result was inactive.

For `C/C(=N\O)C(=O)O`, the outcome was inactive.

In the case of `COc1ccc(CN(CC(=O)NC(C)C)C(=O)/C(C)=N/O)cc1`, the result was inactive.

As to `COc1ccc(CN(CC(=O)NC(C)C)C(=O)CCCCC[n+]2ccc(/C=N/O)cc2)cc1`, the outcome was inactive.

In the case of `O=C(O)CCCCCn1ccnc1/C=N/O`, the result was inactive.

With `COc1ccc(CN(CC(=O)NC(C)C)C(=O)CCCNC(=O)/C=N/O)cc1`, the outcome was inactive.

`O=C(O)Cn1ccnc1/C=N/O`: the result was inactive.

Regarding `O=C(O)/C(=N/O)C(F)(F)F`, the result was inactive.

In the case of `COc1ccc(CN(CC(=O)NC(C)C)C(=O)CCCNC(=O)/C(C)=N/O)cc1`, the result was inactive.

Regarding `COc1ccc(CN(CC(=O)NC(C)C)C(=O)CCNC(=O)/C(C)=N/O)cc1`, the result was inactive.

For the compound `C/C(=N\O)C(=O)NCCC(=O)O`, the outcome was inactive.

Turning to `COc1ccc(CN(CC(=O)NC(C)C)C(=O)CCCCCNC(=O)/C=N/O)cc1`, the result was inactive.

`CCCCN`: the outcome was inactive.

`O=C(O)CCCCC[n+]1ccc(/C=N/O)cc1`: the outcome was inactive.

`C/C(=N\O)C(=O)NCCCC(=O)O`: the outcome was inactive.

For the compound `O=C(O)/C=N/O`, the result was inactive.

As to `O=C(O)CCCNC(=O)/C=N/O`, the outcome was inactive.

For `N#C/C(=N\O)C(=O)O`, the outcome was inactive.

On to `COc1ccc(CN(CC(=O)NC(C)C)C(=O)/C=N/O)cc1`, for which the outcome was inactive.

Take `COc1ccc(CN(CC(=O)NC(C)C)C(=O)C[n+]2ccc(/C=N\O)cc2)cc1`: the outcome was inactive.

With `O=C(O)CCCn1ccnc1/C=N/O`, the result was inactive.

Take `O=C(O)C[n+]1ccc(/C=N/O)cc1`: the outcome was inactive.

For the compound `[C-]#[N+]C(C)C`, the outcome was inactive.

Take `O=C(O)CCCCCNC(=O)/C=N/O`: the result was inactive.

Turning to `COCCN`, the result was inactive.

In a further assay the test system is Rattus norvegicus. Briefly: Anticholinergic activity in Wistar rat assessed as protection against sarin-induced convulsions at 16 umol/kg, iv after 4 hrs.
As for `COc1ccc(CN(CC(=O)NCc2ccccc2)C(=O)CCCCCn2cc[n+](C)c2/C=N\O)cc1`, the result was Active.

On to `CCCCN(CC(=O)NCc1ccccc1)C(=O)CCCCCn1ccnc1/C=N/O`, for which the result was inactive.

On to `COc1ccc(CN(CC(=O)NCc2ccccc2)C(=O)CCCCCn2ccnc2/C=N/O)cc1`, for which the outcome was inactive.

Consider `COc1ccc(CN(CC(=O)NC(C)C)C(=O)CCCCCn2cc[n+](C)c2/C=N\O)cc1`, for which the outcome was inactive.

A further assay deals with Acetylcholinesterase (Homo sapiens) (UniProt P22303). Briefly: Reactivation of cyclosarin inhibited human erythrocyte AChE assessed as residual activity at 10 to 1000 uM using acetylthiocholine iodide as substrate preincubated for 2 to 120 mins followed by substrate addition measured for 3 mins by Ellman's method.
For the compound `COc1ccc(CN)cc1`, the result was inactive.

Turning to `C/C(=N\O)C(=O)O`, the result was inactive.

`COc1ccc(CN(CC(=O)NC(C)C)C(=O)/C(C)=N/O)cc1`: the result was inactive.

Take `COc1ccc(CN(CC(=O)NC(C)C)C(=O)CCCCC[n+]2ccc(/C=N/O)cc2)cc1`: the result was inactive.

Turning to `O=C(O)CCCCCn1ccnc1/C=N/O`, the outcome was inactive.

On to `COc1ccc(CN(CC(=O)NC(C)C)C(=O)CCCNC(=O)/C=N/O)cc1`, for which the result was inactive.

With `O=C(O)Cn1ccnc1/C=N/O`, the outcome was inactive.

With `O=C(O)/C(=N/O)C(F)(F)F`, the outcome was inactive.

In the case of `COc1ccc(CN(CC(=O)NC(C)C)C(=O)CCCNC(=O)/C(C)=N/O)cc1`, the result was inactive.

Regarding `COc1ccc(CN(CC(=O)NC(C)C)C(=O)CCNC(=O)/C(C)=N/O)cc1`, the result was inactive.

As for `C/C(=N\O)C(=O)NCCC(=O)O`, the result was inactive.

In the case of `COc1ccc(CN(CC(=O)NC(C)C)C(=O)CCCCCNC(=O)/C=N/O)cc1`, the outcome was inactive.

As for `CCCCN`, the result was inactive.

Take `O=C(O)CCCCC[n+]1ccc(/C=N/O)cc1`: the outcome was inactive.

As to `C/C(=N\O)C(=O)NCCCC(=O)O`, the outcome was inactive.

As to `O=C(O)/C=N/O`, the outcome was inactive.

In the case of `O=C(O)CCCNC(=O)/C=N/O`, the result was inactive.

In the case of `N#C/C(=N\O)C(=O)O`, the outcome was inactive.

For the compound `COc1ccc(CN(CC(=O)NC(C)C)C(=O)/C=N/O)cc1`, the outcome was inactive.

In the case of `COc1ccc(CN(CC(=O)NC(C)C)C(=O)C[n+]2ccc(/C=N\O)cc2)cc1`, the result was inactive.

For the compound `O=C(O)CCCn1ccnc1/C=N/O`, the outcome was inactive.

Regarding `O=C(O)C[n+]1ccc(/C=N/O)cc1`, the outcome was inactive.

With `[C-]#[N+]C(C)C`, the outcome was inactive.

Regarding `O=C(O)CCCCCNC(=O)/C=N/O`, the outcome was inactive.

`COCCN`: the outcome was inactive.

Another assay shares this target. The experiment in a line: Reactivation of tabun inhibited human erythrocyte AChE assessed as residual activity up to 0.25 mM using acetylthiocholine iodide as substrate preincubated for 2 to 120 mins followed by substrate addition measured for 3 mins by Ellman's method.
For `COc1ccc(CN(CC(=O)NCc2ccccc2)C(=O)Cn2ccnc2/C=N/O)cc1`, the outcome was inactive.

In the case of `CCCCN(CC(=O)NC(C)C)C(=O)Cn1ccnc1/C=N/O`, the result was inactive.

For `COc1ccc(CN(CC(=O)NC(C)C)C(=O)Cn2ccnc2/C=N/O)cc1`, the outcome was inactive.

For `CCCCN(CC(=O)NCc1ccccc1)C(=O)Cn1ccnc1/C=N/O`, the result was inactive.
